This note sets out measurements from US20170088532A1, “INHIBITORS OF LPXC” (The Regents of the University of California, priority 2013, published 2017).

The chains behind the UniProt entries cited, without tags or fusion partners.
UniProt P0A725, whole entry: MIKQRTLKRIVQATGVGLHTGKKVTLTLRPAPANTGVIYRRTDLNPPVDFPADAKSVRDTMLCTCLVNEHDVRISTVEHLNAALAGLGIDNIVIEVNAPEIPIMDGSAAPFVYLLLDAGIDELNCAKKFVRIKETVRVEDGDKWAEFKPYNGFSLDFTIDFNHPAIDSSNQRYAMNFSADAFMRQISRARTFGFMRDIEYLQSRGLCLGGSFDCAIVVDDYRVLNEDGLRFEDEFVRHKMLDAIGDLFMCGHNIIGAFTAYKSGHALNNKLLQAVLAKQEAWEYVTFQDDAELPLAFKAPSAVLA

The structures appear in SMILES notation. Bounds are passed on as bounds.

What is called IC50 is the midpoint of a concentration-inhibition curve.

In this assay the target is E. Coli LpxC (Escherichia coli, UniProt P0A725). Description: Inhibition of LpxC from E. coli. The conditions noted are these: Table 2, values without parentheses. The text has this:
Methods for assessing inhibition of LpxC are known in the art.

On to `COC(=O)c1ccc(-c2ccc(NCc3oc(CS(C)(=O)=O)cc(=O)c3O)cc2)cc1`, for which the IC50 is 0.13 µM.
With `COc1ccc(-c2ccc(NCc3oc(CO)cc(=O)c3O)cc2)cc1F` the figure was 6.1 µM.
The figure for `CN(C)c1ccc(-c2ccc(NCc3oc(CO)cc(=O)c3O)cc2)cc1` is 2.5 µM.
The figure for `O=C(O)c1ccc(-c2ccc(NCc3oc(CO)cc(=O)c3O)cc2)cc1` is 67 µM.
For the compound `COC(=O)c1ccc(-c2ccc(NCc3oc(CO)cc(=O)c3O)cc2)cc1`, the IC50 came out at 1.4 µM.
Consider `CNC(=O)c1ccc(-c2ccc(NCc3oc(CS(C)(=O)=O)cc(=O)c3O)cc2)cc1`, for which the IC50 was under 0.1 µM.
The figure for `CS(=O)(=O)Cc1cc(=O)c(O)c(CNc2ccc(-c3ccc(N4CCOCC4)cc3)cc2)o1` is under 0.1 µM.
